Values joined by “and” are separate entries in the source; they are usually repeats but may differ in a detail not shown here. Identical values can stand only once. The list shows a part of the results, in another mix than the full data. Results filed as inconclusive are left out. Active and inactive are the calls of the source. Calls follow the shape of the dose curve; as a rule, active = well fitted activation curve with a large enough effect; inconclusive = small, poorly fitted or top-dose-only effect; inactive = no such curve, though single readings can be large or run the other way.

The nature of the assay: qHTS Assay for Rab9 Promoter Activators. Also: % of control where 0% means no effect; nearly all actives have a fitted effect of over 60% in size. The conditions noted are these: Huh7 Rab9 promoter-luciferase reporter, luminescence, 24 h; at 9.22 µM (top of the series) unless noted. A general note: Quantitative high-throughput screening tests each substance at several concentrations.
With `CC(C)(C)C(=O)NC(Sc1ccccc1)C(Cl)(Cl)Cl` (configuration not stated), the activation, negative = inhibition is inactive: 0.324%.
Consider `O=P1(Nc2nc3ccc(Cl)cc3s2)COc2ccccc2O1` (configuration not stated), for which the activation, negative = inhibition was inactive: -7.02%.
The same measure for `CC(=O)Nc1ccc(Oc2c([N+](=O)[O-])cc([N+](=O)[O-])cc2[N+](=O)[O-])cc1`: inactive: -2.86%.
The same measure for `CC(=O)Nc1ccc([As](=O)(O)O)c(O)c1`: inactive: -2.45%.
The same measure for `CC(=O)c1ccc(N2CC2c2ccncc2)cc1` (configuration not stated): inactive: -1.19%; for `C[C@H]1OP(=O)(Oc2ccccc2)C[C@@H]2O[C@@H]21` (some centres not stated): inactive: -2.4%; for `C[C@@H]1C=CCP(=O)(Oc2ccccc2)O1` (some centres not stated): inactive: -7%.
Turning to `O=C(NC1CCS(=O)(=O)C1)NP(=S)(Oc1ccccc1)Oc1ccccc1` (configuration not stated), the activation, negative = inhibition was inactive: 21.7%.
Regarding `CCNC(=S)/N=C(\N)N[N+](=O)[O-]`, the activation, negative = inhibition was inactive: -9.48%.
The same measure for `CCOC(=O)NC(Sc1ccccc1)C(Cl)(Cl)Cl` (configuration not stated): inactive: -8.48%; for `Cc1ccc(NP(=O)(Oc2cccc(C)c2)Oc2cccc(C)c2)nc1`: inactive: -4.93%.
In the case of `c1ccc(-c2nn[nH]n2)c(-c2nn[nH]n2)c1`, the activation, negative = inhibition is inactive: -4.09%.
For the compound `O=c1c2cc([N+](=O)[O-])ccc2[nH]c2c([N+](=O)[O-])cc([N+](=O)[O-])cc12`, the activation, negative = inhibition was inactive: -49.7%.
Then `CN(C)C(=O)Oc1noc2ccccc12`, with inactive: -11.8%.
Consider `Cc1ccccc1OP(=O)(Nc1ccccn1)Oc1ccccc1C`, for which the activation, negative = inhibition is inactive: 0.903%.
For the compound `Cc1ccc(OP(=O)(Nc2ccccn2)Oc2ccc(C)cc2)cc1`, the activation, negative = inhibition was inactive: 0.647%.
`CC(=O)NC(SC(=S)N(CC(C)C)CC(C)C)C(Cl)(Cl)Cl` (configuration not stated): the activation, negative = inhibition is inactive: -3.66%.
Then `COC(=O)c1cc2c(s1)N=C(c1ccccc1)N(C)P2(=O)N1CCOCC1` (configuration not stated), with inactive: 8.82%.
The same measure for `CCC(=O)N1C2C3N(C(=O)CC)C1C1N(C(=O)CC)C(C(N1C(=O)CC)N3C(=O)CC)N2C(=O)CC`: inactive: -0.369%; for `O=C(OC1CN2CCC1CC2)c1ccccc1` (configuration not stated): inactive: -4.58%; for `CN(C(=O)Cc1ccc(Cl)c(Cl)c1)[C@@H]1CCCC[C@@H]1N1CCCC1`: inactive: -17.1% [at 46.1 µM].
For the compound `C[C@H]1OP(=O)(Oc2ccccc2)[C@H](O)[C@H](O)[C@H]1N=[N+]=[N-]` (some centres not stated), the activation, negative = inhibition is inactive: 0.32%.
`O=P(Nc1nc2ccccc2s1)(c1ccccc1)c1ccccc1`: the activation, negative = inhibition is inactive: -1.33%.
Then `CN(C)C1(CNC(=O)c2ccc(Cl)c(S(N)(=O)=O)c2)CCCCC1`, with inactive: -4.69%.
With `O=P(Nc1ccccn1)(c1ccc(Br)cc1)c1ccc(Br)cc1`, the activation, negative = inhibition is inactive: -2.32%.
Then `C(Cc1nn[nH]n1)Cc1nn[nH]n1`, with inactive: 6.01%.
The same measure for `Nc1ccc([As](=O)(O)c2ccc([N+](=O)[O-])cc2)cc1`: inactive: -9.97%; for `O=C(OC1CN2CCC1CC2)c1cccc(Cl)c1` (configuration not stated): inactive: -2.66%; for `O=[N+]([O-])c1ncn(CCn2cnc([N+](=O)[O-])n2)n1`: inactive: 1.12%.
As to `CC(=O)NC(SC(=S)N(C)C)C(Cl)(Cl)Cl` (configuration not stated), the activation, negative = inhibition is inactive: -22.7%.
Consider `O=[N+]([O-])c1ccc(O)c(/C=N/Nc2ccc([N+](=O)[O-])cc2[N+](=O)[O-])c1`, for which the activation, negative = inhibition was inactive: -38.2%.
Then `O=[As](O)(c1ccccc1)c1ccc(O)cc1`, with inactive: -2.9%; and `c1nnnn1CCn1cnnn1`, with inactive: 4.49%.
The same measure for `O=P(Nc1nccs1)(c1ccccc1)c1ccccc1`: inactive: -0.718%; for `CC(C)C(=O)NC(Sc1ccccc1)C(Cl)(Cl)Cl` (configuration not stated): inactive: 2.26%.
Then `CC(=O)N1C2C3N(C(C)=O)C1C1N(C(C)=O)C(C(N1C(C)=O)N3C(C)=O)N2C(C)=O`, with inactive: -1.07%; and `O=[N+]([O-])c1cccc2n[nH]nc12`, with inactive: -1.04%.
`O=[N+]([O-])c1cc([N+](=O)[O-])c(CCNc2ccccc2)c([N+](=O)[O-])c1`: the activation, negative = inhibition is inactive: 8.55%.
Then `CCc1nc2c(n1)c1c(non1O)c1c2no[n+]1[O-]`, with inactive: -52.2%; and `Cc1ccc(NP(=O)(Oc2ccccc2)Oc2ccccc2)nc1`, with inactive: 1.8%.
As to `COc1ccc(C2=NCC(CBr)S2)cc1` (configuration not stated), the activation, negative = inhibition was inactive: 12.1%.
Then `CN(C)C(=O)OCCc1n(C)cc[n+]1C`, with inactive: -4.19%; and `CC(C)=N/N=C(\N)N[N+](=O)[O-]`, with inactive: 0.0679%.
The same measure for `CC1CCN(C(=O)Oc2c(Cl)cc(Cl)c3cccnc23)CC1`: inactive: 26.8%; for `Nc1ccc([As](=O)(O)c2ccc(N)cc2)cc1`: inactive: -3.31%.
Turning to `CCN(/C(=N/P(=O)(N1CCOCC1)N1CCOCC1)N1CCOCC1)c1ccc(OC)cc1`, the activation, negative = inhibition is inactive: 0.589%.
Take `O=C(Nc1cc([As](=O)(O)O)ccc1O)c1ccccc1`: the activation, negative = inhibition was inactive: 0.419%.
For `O=[N+]([O-])c1cccc(NC2=NCC(CBr)S2)c1` (configuration not stated), the activation, negative = inhibition was inactive: 0.308%.
For the compound `O=C(O)CNc1ccc([As](=O)(O)O)cc1`, the activation, negative = inhibition is inactive: -0.673%.
On to `CC(C)(C)C(=O)NC(Sc1ccncn1)C(Cl)(Cl)Cl` (configuration not stated), for which the activation, negative = inhibition was inactive: -0.723%.
As to `O=[N+]([O-])c1ncn(CCn2ncnc2[N+](=O)[O-])n1`, the activation, negative = inhibition is inactive: -1.78%.
Then `CN(C(=O)Cc1ccc(Cl)c(Cl)c1)[C@H]1CCCC[C@@H]1N1CCCC1`, with inactive: -31.3% [at 46.1 µM] and inactive: -16.9% [at 46.1 µM]; and `Cc1ccc(NP(=O)(Oc2ccccc2F)Oc2ccccc2F)nc1`, with inactive: 0.122%.
Consider `Cc1cc(SC(NC(=O)c2ccc(F)cc2)C(Cl)(Cl)Cl)ncn1` (configuration not stated), for which the activation, negative = inhibition was inactive: 2.25%.
The same measure for `CCOP(=O)(Nc1ccccc1)OCC`: inactive: -1.87% and inactive: -2.94%; for `CC(=O)Nc1ccc([As](=O)(O)O)cc1`: inactive: -1.14% [at 1.84 µM]; for `O=C(O)c1ccccc1[As](=O)(O)O`: inactive: 1.77%.
For the compound `O=P(Nc1nc2ccc(Cl)cc2s1)(c1ccccc1)c1ccccc1`, the activation, negative = inhibition is inactive: -6.72%.
On to `CCN(N=Nc1nonc1N)c1nonc1N`, for which the activation, negative = inhibition is inactive: -6.68%.
For the compound `Nc1cccc2ccc([As](=O)(O)O)cc12`, the activation, negative = inhibition is inactive: -2.94%.
Then `O=[N+]([O-])c1cc([N+](=O)[O-])c(CCN2CCOCC2)c([N+](=O)[O-])c1`, with inactive: 0.496% [at 1.84 µM]; and `Cc1ccc(OP(=O)(Nc2nccs2)Oc2ccc(C)cc2)cc1`, with inactive: 0.126%.
Then `COc1ccccc1OP(=O)(Nc1ccc(C)cn1)Oc1ccccc1OC`, with inactive: -1.9%; and `CN1CCCC(OC(=O)C(c2ccccc2)c2ccccc2)C1` (configuration not stated), with inactive: -1.88%; and `Clc1ccc(Cl)c(NC2=NCC(CBr)S2)c1` (configuration not stated), with inactive: -5.17%.
On to `NC(=O)c1cc([N+](=O)[O-])cc([N+](=O)[O-])c1N`, for which the activation, negative = inhibition is inactive: 8.47%.
For the compound `Cc1ccc(N/C(=N/P(=O)(N2CCOCC2)N2CCOCC2)N2CCOCC2)cc1`, the activation, negative = inhibition is inactive: -1.71%.
Regarding `CN(C(=O)Cc1ccc(Cl)c(Cl)c1)[C@H]1CCCC[C@H]1N1CCCC1`, the activation, negative = inhibition was inactive: -1.87%.
Then `Nc1cc(N)c2nonc2c1[N+](=O)[O-]`, with inactive: -1.58%.
The same measure for `CC(C)CC(=O)NC(Sc1ccc(Cl)cc1)C(Cl)(Cl)Cl` (configuration not stated): inactive: -5.51%.
For `O=C(NC(Sc1ccncn1)C(Cl)(Cl)Cl)c1ccccc1` (configuration not stated), the activation, negative = inhibition is inactive: -1.42%.
For `Cc1c2non([O-])c-2c(C)[n+](=O)[n+]1[O-]`, the activation, negative = inhibition was inactive: 0.545%.
Take `Oc1ccccc1CNc1ccccn1`: the activation, negative = inhibition was inactive: 13.2%.
The same measure for `COc1cc(I)ccc1[As](=O)(O)O`: inactive: 0.391%.
For `COc1ccc2nc(NP(=O)(c3ccccc3)c3ccccc3)sc2c1`, the activation, negative = inhibition is inactive: 0.0109%.
As to `Cc1cc(=O)[nH]c(N[N+](=O)[O-])n1`, the activation, negative = inhibition is inactive: -4.84%.
In the case of `O=C(OC1CN2CCC1CC2)C12CC3CC(CC(C3)C1)C2` (configuration not stated), the activation, negative = inhibition was inactive: 1.91%.
As for `Cc1c2c(nc3ccccc13)SC(C(Cl)Cl)C2` (configuration not stated), the activation, negative = inhibition was inactive: -0.384%.
For `COc1ccc(N/C(=N/P(=O)(N2CCOCC2)N2CCOCC2)N2CCOCC2)cc1`, the activation, negative = inhibition was inactive: -10.6%.
Then `Cc1ccc2nc3c(c(C)c2c1)CC(C(Cl)Cl)S3` (configuration not stated), with inactive: -3.88%.
Then `Cc1ccc(OP(=O)(Nc2ccc([N+](=O)[O-])cn2)Oc2ccc(C)cc2)cc1`, with inactive: 0.889%; and `COc1cc(C(=O)NCC2(N3CCOCC3)CCCCC2)ccc1OCC(C)C`, with inactive: -6.22%.
`O=[As](O)(c1ccc(O)cc1)c1ccccc1O`: the activation, negative = inhibition was inactive: -1.66%.
Then `C[As](=O)(O)c1cccc(C(=O)O)c1`, with inactive: 2.28% [at 1.84 µM].
Turning to `O=[N+]([O-])c1cc([N+](=O)[O-])c(-c2ccn[nH]2)s1`, the activation, negative = inhibition was inactive: -16.2%.
The same measure for `CC(C)NC(=O)NP(=O)(Oc1ccccc1)Oc1ccccc1`: inactive: -0.391%.
With `CCN(CC)C(=S)SC(NC=O)C(Cl)(Cl)Cl` (configuration not stated), the activation, negative = inhibition was inactive: -13.5%.
Take `CC(C)c1ccc(OP(=O)(Nc2ccccn2)Oc2ccccc2F)cc1` (configuration not stated): the activation, negative = inhibition was inactive: -9.8%.
As for `ClCCSc1nnc(-c2cccnc2)o1`, the activation, negative = inhibition is inactive: -2.84%.
As to `Cc1cc(SC(NC(=O)c2ccccc2)C(Cl)(Cl)Cl)nc(C(C)C)n1` (configuration not stated), the activation, negative = inhibition was inactive: -0.727%.
Consider `CCCCOc1ccc(C(=O)NCC2(N3CCCCC3)CCCCC2)cc1OC`, for which the activation, negative = inhibition was inactive: -9.82%.
On to `CCOC(=O)Nc1ccc([As](=O)(O)O)c(O)c1`, for which the activation, negative = inhibition was inactive: -5.35%.
The same measure for `O=[N+]([O-])c1ccc(Nc2ccc(Oc3ccc([N+](=O)[O-])cc3[N+](=O)[O-])cc2)c([N+](=O)[O-])c1`: inactive: -2.09%; for `Cc1cc(SC(NC=O)C(Cl)(Cl)Cl)ncn1` (configuration not stated): inactive: 5.12%.
As for `O=P(Nc1ccccn1)(c1cccc2ccccc12)c1cccc2ccccc12`, the activation, negative = inhibition was inactive: -0.975%.
Turning to `CCOC(=O)Nc1cccc([As](=O)(O)O)c1`, the activation, negative = inhibition was inactive: -2.8% [at 1.84 µM].
The same measure for `O=C(Nc1ccncc1[N+](=O)[O-])c1ccc([N+](=O)[O-])cc1[N+](=O)[O-]`: inactive: 13.8%.

The record behind these values is PubChem BioAssay AID485297 (National Center for Advancing Translational Sciences (NCATS), 2010).
